3 compounds from patent US20130040405A1, “METHODS FOR SENSITIVE AND RAPID DETECTION OF MOLECULES” (published 2013) can be followed below.

This is a selection: effects in other tests are not listed, and their absence says nothing.

In experiment [1] the test system is anti-TNT monoclonal antibody (A1.1.1). Nature of the experiment: QCM-based antibody displacement assay with Langmuir model analysis. The note with it: for Δfmax (maximum frequency change caused by antibody displacement) / KA (binding affinity constant): Langmuir model fit of QCM data, displacement from TNB; for KA (binding affinity constant): relative affinity for anti-TNT antibody; for normalized frequency change: TNT at limit of detection 0.1 ng/mL.

For experiment [2] the test system is unchanged. The experiment in a line: ELISA measurement of anti-TNT antibody displacement from TNB-ovalbumin by TNT and TNT analogs. As to conditions: displacement of antibody A1.1.1 from immobilized TNB-ovalbumin. A general note: ELISA stands for enzyme-linked immunosorbent assay.

As to `Cc1c([N+](=O)[O-])cccc1[N+](=O)[O-]`, in experiment [1], the “Δfmax (maximum frequency change caused by antibody displacement)” value worked out at 0.24 ± 0.11 and the “KA (binding affinity constant)” value is 0.47 ± 0.14 mL/µg. Also, in experiment [2], the “Concentration upon 50% of antibody displacement” value was over 100 µg/mL.

With `Cc1c([N+](=O)[O-])cc([N+](=O)[O-])cc1[N+](=O)[O-]`, in experiment [1], the “Δfmax (maximum frequency change caused by antibody displacement)” value is listed as 0.73±0.05 and the “KA (binding affinity constant)” value stood at 5.09 ± 0.61 mL/µg. Besides, the normalized frequency change in experiment [1] (QCM, PBS) stood at 1.92±0.27. The compound further showed a normalized frequency change in experiment [1] (QCM, artificial seawater) of 1.56±0.16. In addition, in experiment [1] (QCM, compound at 1 μg/mL), the “frequency change Δf” value is 26.65 Hz and the ΔD/Δf ratio is 0.0051±0.0011 ×10^−6/Hz. In experiment [1] (QCM, compounds at 10 μg/mL, at equilibrium), the “antibody displacement relative to DNT” value was “about 3 fold”. The compound also came in with a normalized frequency change in experiment [1] (QCM, fertilizer solution) of 1.50±0.15. Moreover, the “Concentration upon 50% of antibody displacement” value in experiment [2] stood at 0.025 µg/mL.

For the compound `O=[N+]([O-])c1cc([N+](=O)[O-])cc([N+](=O)[O-])c1`, in experiment [1], the “Δfmax (maximum frequency change caused by antibody displacement)” value is recorded as 0.66 ± 0.04 and the “KA (binding affinity constant)” value is 1.44 ± 0.62 mL/µg. In experiment [1] (QCM, compound at 10 μg/mL), the “frequency change Δf” value stood at 28.85 Hz and the ΔD/Δf ratio is reported as 0.0111±0.0007 ×10^−6/Hz. Besides, in experiment [2], the “Concentration upon 50% of antibody displacement” value worked out at 0.3 µg/mL.
